# According to patent US10273544B2, “Methods for predicting likelihood of responding to treatment” (Dana-Farber Cancer Institute, Inc., priority 2010, dated 2019):
# Sequences of proteins named here, by UniProt entry; tags and fusion partners are left off.
# UniProt O94956, whole entry R312Q: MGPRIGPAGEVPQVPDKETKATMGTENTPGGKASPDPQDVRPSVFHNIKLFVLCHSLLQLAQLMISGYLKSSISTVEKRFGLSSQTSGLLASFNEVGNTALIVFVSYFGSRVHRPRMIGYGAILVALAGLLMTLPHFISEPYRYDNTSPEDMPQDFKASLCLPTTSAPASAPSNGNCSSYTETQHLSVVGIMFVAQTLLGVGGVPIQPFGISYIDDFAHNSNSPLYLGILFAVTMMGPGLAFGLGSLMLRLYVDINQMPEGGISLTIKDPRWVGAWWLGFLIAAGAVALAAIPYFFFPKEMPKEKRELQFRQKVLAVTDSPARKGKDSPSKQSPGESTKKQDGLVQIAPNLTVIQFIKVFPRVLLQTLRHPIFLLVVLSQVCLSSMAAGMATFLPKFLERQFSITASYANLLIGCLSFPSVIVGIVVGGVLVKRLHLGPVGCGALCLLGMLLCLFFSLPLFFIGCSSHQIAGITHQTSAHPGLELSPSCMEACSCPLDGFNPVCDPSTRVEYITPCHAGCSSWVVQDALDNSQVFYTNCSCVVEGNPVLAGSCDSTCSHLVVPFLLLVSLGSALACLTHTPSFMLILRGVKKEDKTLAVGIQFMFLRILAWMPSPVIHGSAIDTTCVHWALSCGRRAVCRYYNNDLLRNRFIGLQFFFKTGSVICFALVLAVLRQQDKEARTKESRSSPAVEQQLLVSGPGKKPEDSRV
# Assays:
# SLCO2B1-312Gln = SLCO2B1-312Gln (Homo sapiens, UniProt O94956, R312Q); assay: DHEAS uptake assay in LNCaP cells transfected with SLCO2B1-312Gln
# Excerpt: (§1) Two full-length SLCO2B1 cDNAs, SLCO2B1-312Gln (having a G at the position 935) and SLCO2B1-312Arg (having an A at position 935), were cloned into the pCMV6-XL4 vector (OriGene Technologies, Rockville, Md.). The SLCO2B1 935G>A nucleotide exchange was introduced into the cDNA using the QuikChange Site-Directed Mutagenesis kit (Stratagene, La Jolla, Calif.). Primers used for the mutagenesis were 5′-[…]-3′ (SEQ ID NO:1) and 5′-[…]-3′ (SEQ ID NO:2) (underlined sequences encode 312Arg).
# (§2) LNCaP cells were maintained in RPMI 1640 supplemented with 10% fetal bovine serum (FBS). Twenty-four hours before transfection, 2×10^5 cells were seeded in 12-well plates using Phenol-Red free RPMI 1640 supplemented with 10% charcoal-stripped FBS. LNCaP cells were transiently transfected with pCMV-SLCO2B1-312Gln, pCMV-SLCO2B1-312Arg, or pCMV6-XL4 empty vector using Lipofectamine^2000 according to the manufacturer's instructions.
# (§3) The enzyme immunoassay test is based on the competition that occurs between an unlabeled antigen (present in standards, control and samples) and an enzyme-labeled antigen (conjugate) for a limited number of antibody binding sites on the microwell plate. The sensitivity of the kit is 5 ng/ml.
# AR = AR expression by quantitative RT-PCR; assay type: cell-based; conditions: 100 μM DHEAS
# Description: Total RNA was isolated from cells using TRIzol reagent (Invitrogen, Carlsbad, Calif.) and then converted to cDNA using High Capacity cDNA Reverse Transcription kit (Applied Biosystems, Foster City, Calif.). The expression levels of SLCO2B1 and GAPDH were measured using a standard TaqMan PCR kit protocol. Experiments were carried out in triplicate for each data point. Real-time PCR primers and probe sets were inventoried products of Applied Biosystem (Assay ID: Hs00200670_m1 and Hs02758991_g1).
# To determine the biological influence of DHEAS uptake in AR activation, AR mediated PSA expression was compared in wild type LNCaP and LAPC-4 cells (another CaP cell line, maintained as described above for LNCaP cells) and cells that express different SLCO2B1 variants. The expression levels of AR and PSA were measured using a standard TaqMan PCR kit protocol (Hs02576345_m1 and Hs00171172_m1) as described in Example 3.
# SLCO2B1-312Arg = SLCO2B1-312Arg (Homo sapiens, UniProt O94956); assay: DHEAS uptake assay in LNCaP cells transfected with SLCO2B1-312Arg
# Excerpt: as §1, §2, §3
# LNCaP cells = assay: Cell proliferation, WST-1 assay, LNCaP; assay type: cell-based; conditions: 100 μM DHEAS
# Description: To corroborate the hypothesis that increasing the intracellular androgen level is involved in the development of the CRPC cells, the impact of DHEAS uptake on cell growth was determined. Cell proliferation was determined using a WST-1 kit (Roche, Indianapolis, Ind.). Briefly, cells were cultured in 96-well plates in androgen-depleted medium and were transfected with different alleles of SLCO2B1 expression plasmids before adding 100 μM DHEAS. Tetrazolium salt cell proliferation assay then was carried out at different days after transfection, following the manufacturer's instructions.
compound,measurement,setting,value
"C[C@]12CC[C@H](OS(=O)(=O)O)CC1=CC[C@@H]1[C@@H]2CC[C@]2(C)C(=O)CC[C@@H]12 [DHEAS, sulfated dehydroepiandrosterone]",maximal uptake of DHEAS,"SLCO2B1-312Gln; 100 μM DHEAS, LNCaP cells expressing SLCO2B1-312Gln",223.38±8.55 pmol/mg protein
same,Vmax for DHEAS uptake,SLCO2B1-312Gln; 312Gln variant,281.4 pmol/mg protein/min
same,"AR expression level, SLCO2B1-Gln cells relative to SLCO2B1-Arg cells",AR,1.24 fold
same,maximal uptake of DHEAS,"SLCO2B1-312Arg; 100 μM DHEAS, LNCaP cells expressing SLCO2B1-312Arg",162.76±25.73 pmol/mg protein
same,Vmax for DHEAS uptake,SLCO2B1-312Arg; 312Arg variant,189.5 pmol/mg protein/min
same,increase of growth efficiency,LNCaP cells; LNCaP transfected with SLCO2B1-312Arg,2.0 fold
same,increase of growth efficiency,LNCaP cells; LNCaP transfected with SLCO2B1-312Gln,2.5 fold
